Patent publication US20140100156A1 (SANOFI, priority 2012, published 2014)

Sequences of proteins named here, by UniProt entry; tags and fusion partners are left off. Residues count along the entry.
UniProt P43220, 24-463: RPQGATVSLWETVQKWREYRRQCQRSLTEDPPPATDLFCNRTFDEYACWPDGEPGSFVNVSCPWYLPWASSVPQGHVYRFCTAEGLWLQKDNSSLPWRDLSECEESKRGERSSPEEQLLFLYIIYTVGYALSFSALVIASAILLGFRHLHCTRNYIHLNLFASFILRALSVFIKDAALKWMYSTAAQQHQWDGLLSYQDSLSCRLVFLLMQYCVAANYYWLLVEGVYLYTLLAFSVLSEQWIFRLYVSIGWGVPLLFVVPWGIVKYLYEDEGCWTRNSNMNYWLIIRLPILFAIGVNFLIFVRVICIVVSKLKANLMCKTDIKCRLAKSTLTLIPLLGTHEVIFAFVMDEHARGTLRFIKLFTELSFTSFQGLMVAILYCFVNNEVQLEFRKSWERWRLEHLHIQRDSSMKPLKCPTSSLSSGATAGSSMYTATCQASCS
UniProt P47871, 26-477: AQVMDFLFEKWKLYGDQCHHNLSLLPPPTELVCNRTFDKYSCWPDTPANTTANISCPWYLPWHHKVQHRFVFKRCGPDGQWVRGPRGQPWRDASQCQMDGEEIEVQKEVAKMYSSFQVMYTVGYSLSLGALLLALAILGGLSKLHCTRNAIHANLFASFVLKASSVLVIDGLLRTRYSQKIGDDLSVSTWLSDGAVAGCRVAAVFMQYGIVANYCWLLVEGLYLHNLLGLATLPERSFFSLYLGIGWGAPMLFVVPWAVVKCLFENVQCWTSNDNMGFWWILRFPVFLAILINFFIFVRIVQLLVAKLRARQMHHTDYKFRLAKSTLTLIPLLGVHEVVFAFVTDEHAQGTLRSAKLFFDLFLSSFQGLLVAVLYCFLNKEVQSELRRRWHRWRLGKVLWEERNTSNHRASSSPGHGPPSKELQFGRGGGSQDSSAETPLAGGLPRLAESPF

Legend:
[1] = target: T1, human GLP-1 receptor (Homo sapiens, UniProt P43220); assay: cAMP response (HTRF) of HEK-293 cells stably expressing human GLP-1 receptor; format: cell-based; conditions: Table 5; cAMP, HEK-293; read-out: EC50 hGLP-1R
T1 construct: expressed in transfected cells; host or cells: HEK-293

[2] = target: T2, human glucagon receptor (Homo sapiens, UniProt P47871); assay: cAMP response (HTRF) of HEK-293 cells stably expressing human glucagon receptor; format: cell-based; conditions: Table 5; cAMP, HEK-293; read-out: EC50 hGlucagon-R
T2 construct: expressed in transfected cells; host or cells: HEK-293

CCCCCCCCCCCCCCCCCC(=O)N[C@@H](CCC(=O)NCCCC[C@H](NC(=O)[C@H](CCC(N)=O)NC(=O)[C@H](CCCCN)NC(=O)[C@H](CO)NC(=O)[C@H](CC(C)C)NC(=O)[C@H](CC(=O)O)NC(=O)[C@H](CO)NC(=O)[C@@H](NC(=O)[C@H](Cc1ccccc1)NC(=O)[C@@H](NC(=O)CNC(=O)[C@H](CCC(N)=O)NC(=O)C(C)(C)NC(=O)[C@@H](N)Cc1c[nH]cn1)[C@@H](C)O)[C@@H](C)O)C(=O)N[C@@H](CC(=O)O)C(=O)N[C@@H](CCC(=O)O)C(=O)N[C@@H](CCC(N)=O)C(=O)N[C@@H](CCCNC(=N)N)C(=O)N[C@@H](C)C(=O)N[C@@H](CCCCN)C(=O)N[C@@H](CC(=O)O)C(=O)N[C@@H](Cc1ccccc1)C(=O)N[C@H](C(=O)N[C@@H](CCC(=O)O)C(=O)N[C@@H](Cc1c[nH]c2ccccc12)C(=O)N[C@@H](CC(C)C)C(=O)N[C@@H](CCCCN)C(=O)N[C@@H](C)C(=O)N[C@H](C)C(=O)NCC(=O)N1CCC[C@H]1C(=O)N[C@@H](CO)C(=O)N[C@@H](CO)C(=O)NCC(=O)N[C@@H](C)C(=O)N1CCC[C@H]1C(=O)N1CCC[C@H]1C(=O)N1CCC[C@H]1C(=O)N[C@@H](CO)C(N)=O)[C@@H](C)CC)C(=O)O [compound 199]
EC50 [1]: 0.0101 nM | EC50 [2]: 0.0072 nM

CCCCCCCCCCCCCCCCCC(=O)N[C@@H](CCC(=O)NCCCC[C@H](NC(=O)[C@H](CCC(N)=O)NC(=O)[C@H](CCCCN)NC(=O)[C@H](CO)NC(=O)[C@H](CC(C)C)NC(=O)[C@H](CC(=O)O)NC(=O)[C@H](CO)NC(=O)[C@@H](NC(=O)[C@H](Cc1ccccc1)NC(=O)[C@@H](NC(=O)CNC(=O)[C@H](CCC(N)=O)NC(=O)C(C)(C)NC(=O)[C@@H](N)Cc1c[nH]cn1)[C@@H](C)O)[C@@H](C)O)C(=O)N[C@@H](CC(=O)O)C(=O)N[C@@H](CCC(=O)O)C(=O)N[C@@H](CCC(N)=O)C(=O)N[C@@H](CCCNC(=N)N)C(=O)N[C@@H](C)C(=O)N[C@@H](CCCCN)C(=O)N[C@@H](CC(C)C)C(=O)N[C@@H](Cc1ccccc1)C(=O)N[C@H](C(=O)N[C@@H](CCC(=O)O)C(=O)N[C@@H](Cc1c[nH]c2ccccc12)C(=O)N[C@@H](CC(C)C)C(=O)N[C@@H](CCCCN)C(=O)N[C@@H](C)C(=O)N[C@H](C)C(=O)NCC(=O)N1CCC[C@H]1C(=O)N[C@@H](CO)C(=O)N[C@@H](CO)C(=O)NCC(=O)N[C@@H](C)C(=O)N1CCC[C@H]1C(=O)N1CCC[C@H]1C(=O)N1CCC[C@H]1C(=O)N[C@@H](CO)C(N)=O)[C@@H](C)CC)C(=O)O [compound 200]
EC50 [1]: 0.0046 nM | EC50 [2]: 0.0044 nM

CCCCCCCCCCCCCCCCCCCCC(=O)N[C@@H](CCC(=O)NCCCC[C@H](NC(=O)[C@H](CCC(N)=O)NC(=O)[C@H](CCCCN)NC(=O)[C@H](CO)NC(=O)[C@H](CC(C)C)NC(=O)[C@H](CC(=O)O)NC(=O)[C@H](CO)NC(=O)[C@@H](NC(=O)[C@H](Cc1ccccc1)NC(=O)[C@@H](NC(=O)CNC(=O)[C@H](CCC(N)=O)NC(=O)C(C)(C)NC(=O)[C@@H](N)Cc1c[nH]cn1)[C@@H](C)O)[C@@H](C)O)C(=O)N[C@@H](CC(=O)O)C(=O)N[C@@H](CCC(=O)O)C(=O)N[C@@H](CCC(N)=O)C(=O)N[C@@H](C)C(=O)N[C@@H](C)C(=O)N[C@@H](CCCCN)C(=O)N[C@@H](CC(C)C)C(=O)N[C@@H](Cc1ccccc1)C(=O)N[C@H](C(=O)N[C@@H](CCC(=O)O)C(=O)N[C@@H](Cc1c[nH]c2ccccc12)C(=O)N[C@@H](CC(C)C)C(=O)N[C@@H](CCCCN)C(=O)N[C@@H](C)C(=O)N[C@H](C)C(=O)NCC(=O)N1CCC[C@H]1C(=O)N[C@@H](CO)C(=O)N[C@@H](CO)C(=O)NCC(=O)N[C@@H](C)C(=O)N1CCC[C@H]1C(=O)N1CCC[C@H]1C(=O)N1CCC[C@H]1C(=O)N[C@@H](CO)C(N)=O)[C@@H](C)CC)C(=O)O [compound 201]
EC50 [1]: 0.0227 nM | EC50 [2]: 0.0296 nM

CCCCCCCCCCCCCCCCCCCCC(=O)N[C@@H](CCC(=O)NCCCC[C@H](NC(=O)[C@H](CCC(N)=O)NC(=O)[C@H](CCCCN)NC(=O)[C@H](CO)NC(=O)[C@H](CC(C)C)NC(=O)[C@H](CC(=O)O)NC(=O)[C@H](CO)NC(=O)[C@@H](NC(=O)[C@H](Cc1ccccc1)NC(=O)[C@@H](NC(=O)CNC(=O)[C@H](CCC(N)=O)NC(=O)C(C)(C)NC(=O)[C@@H](N)Cc1c[nH]cn1)[C@@H](C)O)[C@@H](C)O)C(=O)N[C@@H](CCC(=O)O)C(=O)N[C@@H](CO)C(=O)N[C@@H](CCCNC(=N)N)C(=O)N[C@@H](C)C(=O)N[C@@H](C)C(=O)N[C@@H](CCC(N)=O)C(=O)N[C@@H](CC(=O)O)C(=O)N[C@@H](Cc1ccccc1)C(=O)N[C@H](C(=O)N[C@@H](CCC(=O)O)C(=O)N[C@@H](Cc1c[nH]c2ccccc12)C(=O)N[C@@H](CC(C)C)C(=O)N[C@@H](CCCCN)C(=O)N[C@@H](C)C(=O)NCC(=O)NCC(=O)N1CCC[C@H]1C(=O)N[C@@H](CO)C(=O)N[C@@H](CO)C(=O)NCC(=O)N[C@@H](C)C(=O)N1CCC[C@H]1C(=O)N1CCC[C@H]1C(=O)N1CCC[C@H]1C(=O)N[C@@H](CO)C(N)=O)[C@@H](C)CC)C(=O)O [compound 202]
EC50 [1]: 0.0262 nM | EC50 [2]: 0.0069 nM

CCCCCCCCCCCCCCCCCCCCC(=O)N[C@@H](CCC(=O)NCCCC[C@H](NC(=O)[C@H](CCC(N)=O)NC(=O)[C@H](CCCCN)NC(=O)[C@H](CO)NC(=O)[C@H](CC(C)C)NC(=O)[C@H](CC(=O)O)NC(=O)[C@H](CO)NC(=O)[C@@H](NC(=O)[C@H](Cc1ccccc1)NC(=O)[C@@H](NC(=O)CNC(=O)[C@H](CCC(N)=O)NC(=O)C(C)(C)NC(=O)[C@@H](N)Cc1c[nH]cn1)[C@@H](C)O)[C@@H](C)O)C(=O)N[C@@H](CCC(=O)O)C(=O)N[C@@H](CO)C(=O)N[C@@H](CCCNC(=N)N)C(=O)N[C@@H](C)C(=O)N[C@@H](C)C(=O)N[C@@H](CCC(N)=O)C(=O)N[C@@H](CC(C)C)C(=O)N[C@@H](Cc1ccccc1)C(=O)N[C@H](C(=O)N[C@@H](CCC(=O)O)C(=O)N[C@@H](Cc1c[nH]c2ccccc12)C(=O)N[C@@H](CC(C)C)C(=O)N[C@@H](CCCCN)C(=O)N[C@@H](C)C(=O)NCC(=O)NCC(=O)N1CCC[C@H]1C(=O)N[C@@H](CO)C(=O)N[C@@H](CO)C(=O)NCC(=O)N[C@@H](C)C(=O)N1CCC[C@H]1C(=O)N1CCC[C@H]1C(=O)N1CCC[C@H]1C(=O)N[C@@H](CO)C(N)=O)[C@@H](C)CC)C(=O)O [compound 203]
EC50 [1]: 0.0349 nM | EC50 [2]: 0.0131 nM

CCCCCCCCCCCCCCCCCCCCC(=O)N[C@@H](CCC(=O)NCCCC[C@H](NC(=O)[C@H](CCC(N)=O)NC(=O)[C@H](CCCCN)NC(=O)[C@H](CO)NC(=O)[C@H](CC(C)C)NC(=O)[C@H](CC(=O)O)NC(=O)[C@H](CO)NC(=O)[C@@H](NC(=O)[C@H](Cc1ccccc1)NC(=O)[C@@H](NC(=O)CNC(=O)[C@H](CCC(N)=O)NC(=O)C(C)(C)NC(=O)[C@@H](N)Cc1c[nH]cn1)[C@@H](C)O)[C@@H](C)O)C(=O)N[C@@H](CCC(=O)O)C(=O)N[C@@H](CO)C(=O)N[C@@H](CCCNC(=N)N)C(=O)N[C@@H](C)C(=O)N[C@@H](C)C(=O)N[C@@H](CCC(N)=O)C(=O)N[C@@H](CC(C)C)C(=O)N[C@@H](Cc1ccccc1)C(=O)N[C@H](C(=O)N[C@@H](CCC(=O)O)C(=O)N[C@@H](Cc1c[nH]c2ccccc12)C(=O)N[C@@H](CC(C)C)C(=O)N[C@@H](CCCCN)C(=O)N[C@@H](C)C(=O)N[C@H](C)C(=O)NCC(=O)N1CCC[C@H]1C(=O)N[C@@H](CO)C(=O)N[C@@H](CO)C(=O)NCC(=O)N[C@@H](C)C(=O)N1CCC[C@H]1C(=O)N1CCC[C@H]1C(=O)N1CCC[C@H]1C(=O)N[C@@H](CO)C(N)=O)[C@@H](C)CC)C(=O)O [compound 204]
EC50 [1]: 0.0341 nM | EC50 [2]: 0.0125 nM

CCCCCCCCCCCCCCCCCC(=O)N[C@@H](CCC(=O)NCCCC[C@H](NC(=O)[C@H](CCC(N)=O)NC(=O)[C@H](CCCCN)NC(=O)[C@H](CO)NC(=O)[C@H](CC(C)C)NC(=O)[C@H](CC(=O)O)NC(=O)[C@H](CO)NC(=O)[C@@H](NC(=O)[C@H](Cc1ccccc1)NC(=O)[C@@H](NC(=O)CNC(=O)[C@H](CCC(N)=O)NC(=O)C(C)(C)NC(=O)[C@@H](N)Cc1c[nH]cn1)[C@@H](C)O)[C@@H](C)O)C(=O)N[C@@H](CCC(=O)O)C(=O)N[C@@H](CO)C(=O)N[C@@H](CCCNC(=N)N)C(=O)N[C@@H](CCCNC(=N)N)C(=O)N[C@@H](C)C(=O)N[C@@H](CCC(N)=O)C(=O)N[C@@H](CC(C)C)C(=O)N[C@@H](Cc1ccccc1)C(=O)N[C@H](C(=O)N[C@@H](CCC(=O)O)C(=O)N[C@@H](Cc1c[nH]c2ccccc12)C(=O)N[C@@H](CC(C)C)C(=O)N[C@@H](CCCCN)C(=O)N[C@@H](C)C(=O)N[C@H](C)C(=O)NCC(=O)N1CCC[C@H]1C(=O)N[C@@H](CO)C(=O)N[C@@H](CO)C(=O)NCC(=O)N[C@@H](C)C(=O)N1CCC[C@H]1C(=O)N1CCC[C@H]1C(=O)N1CCC[C@H]1C(=O)N[C@@H](CO)C(N)=O)[C@@H](C)CC)C(=O)O [compound 205]
EC50 [1]: 0.0123 nM | EC50 [2]: 0.0052 nM

CCCCCCCCCCCCCCCCCC(=O)N[C@@H](CCC(=O)NCCCC[C@H](NC(=O)[C@H](CCC(N)=O)NC(=O)[C@H](CCCCN)NC(=O)[C@H](CO)NC(=O)[C@H](CC(C)C)NC(=O)[C@H](CC(=O)O)NC(=O)[C@H](CO)NC(=O)[C@@H](NC(=O)[C@H](Cc1ccccc1)NC(=O)[C@@H](NC(=O)CNC(=O)[C@H](CCC(N)=O)NC(=O)C(C)(C)NC(=O)[C@@H](N)Cc1c[nH]cn1)[C@@H](C)O)[C@@H](C)O)C(=O)N[C@@H](CC(=O)O)C(=O)N[C@@H](CCC(=O)O)C(=O)N[C@@H](CCC(N)=O)C(=O)N[C@@H](CCCCN)C(=O)N[C@@H](C)C(=O)N[C@@H](CCCCN)C(=O)N[C@@H](CC(C)C)C(=O)N[C@@H](Cc1ccccc1)C(=O)N[C@H](C(=O)N[C@@H](CCC(=O)O)C(=O)N[C@@H](Cc1c[nH]c2ccccc12)C(=O)N[C@@H](CC(C)C)C(=O)N[C@@H](CCCCN)C(=O)N[C@@H](CO)C(=O)NCC(=O)NCC(=O)N1CCC[C@H]1C(=O)N[C@@H](CO)C(=O)N[C@@H](CO)C(=O)NCC(=O)N[C@@H](C)C(=O)N1CCC[C@H]1C(=O)N1CCC[C@H]1C(=O)N1CCC[C@H]1C(=O)N[C@@H](CO)C(N)=O)[C@@H](C)CC)C(=O)O [compound 206]
EC50 [1]: 0.0032 nM | EC50 [2]: 0.0125 nM
